In patent US5599839A, “Antiviral composition” (The United States of America as represented by the …, priority 1995, dated 1997):

What was measured:
protein kinase C = details: in vitro
Experimental: Incubation was for 30 min at 37° C., after which the cells were chilled, an aliquot removed to determine total counts, and bound counts determined by filtration.

CEM-SS cells [1] = format: cell-based, human; details: 500 nM
Description: Cancer Inst. […] Cancer Inst. 81:1254-1258, (1989)] but with several modifications.
Philadelphia: Lippincott, 1988, pp. 305-317; Weislow et al.: J. Nat. Cancer Inst. […] Cancer Inst. 81:1254-1258, (1989)].

C3H10T1/2 cells = test: Release of [3H]arachidonic acid metabolites in C3H10T1/2 cells; format: cell-based
Description: Well-characterized biological responses to the phorbol esters include inhibition of binding of epidermal growth factor and release of arachidonic acid metabolites [Dell'Aquila et al.: Cancer Res. 48:3702-3708, (1988)].

CEM-SS cells [2] = details: 0-5 days of incubation, FIG. 4
Experimental: Trypan blue dye exclusion was employed for secondary evaluation of drug toxicity and antiviral protection over time. A 50 μl aliquot of cells was removed from each test well and mixed with 100 μl of 0.4% trypan blue. The percentage of viable cells was determined microscopically by direct hemocytometer counts.

CEM-SS cells [3] = tested on: CEM-SS cells

SMILES | Stimulation of protein kinase C activity (protein kinase C) | Cytostatic effect (CEM-SS cells [1]) | Release of arachidonic acid metabolites (C3H10T1/2 cells) | Anti-HIV activity over time, trypan blue end-point (CEM-SS cells [2]) | Cell proliferation (CEM-SS cells [3]) | Cytopathic effects of HIV-1 infection (CEM-SS cells [3]) | Syncytium formation (cellular morphology at higher magnification) (CEM-SS cells [3]; 1 μM) | Macroscopic morphology of cell pellets, uninfected versus HIV-1-infected (CEM-SS cells [3]; 10 μg/ml, 6 days) | Pellet size and percentage of viable cells, infected versus uninfected cultures (CEM-SS cells [3]; after prostratin treatment)
CCCC(=O)O[C@@H]1[C@@H](C)[C@@]2(O)[C@@H](C=C(CO)C[C@]3(O)C(=O)C(C)=C[C@@H]23)[C@@H]2C(C)(C)[C@]12OC(=O)CCC [PDBu, phorbol 12,13-dibutyrate, reference compound] | stimulated protein kinase C (PKC) activity | cytostatic | – | – | – | – | – | – | –
CC(=O)O[C@@]12C[C@@H](C)[C@@]3(O)[C@@H](C=C(CO)C[C@]4(O)C(=O)C(C)=C[C@@H]34)[C@@H]1C2(C)C [prostratin] | stimulated protein kinase C (PKC) activity | – | induces both of these responses | strikingly apparent after three or more days | inhibited cell proliferation | block totally | syncytium formation was completely abolished | virtually identical | similar
